According to publication PMC9877232, “A biocatalytic peptidobiosensing molecular bridge for detecting osteosarcoma marker protein” (Frontiers in Chemistry, 2023):

System: MDM2
Assay: square wave voltammetry of poly-tyrosine, control detection of MDM2
Parameters: species or system human
Details: detecting 10 nM MDM2, 10 mM PBS, pH 7.4
From the text: Synthetic peptide probes (theirs sequences was shown as Supplementary Figure S1), and a control synthetic peptide with the protein targeting sequence swapped as TSFAEYWNLLSP, were tailor-made as freeze-dried powder, with higher than 95% nominal purity, by Conngbibio Co., Ltd. Poly-tyrosine was purchased from Sigma-Aldrich. Recombinant G-protein subunit alpha and avidin were from Abcam, while recombinant integrin was from the R&D system. Recombinant human murine double minute 2 (hMDM2) (>98%) was purchased from ProSpec-Tany TechnoGene Ltd. The other compounds were all of an analytical caliber. […]
A MicroCal ITC200 System was used to make measurements using isothermal titration calorimetry (ITC) (GE healthcare life sciences). […] Each set of data was adjusted for heats of dilution, which were calculated by titrating past saturation. […] A QM-4/2005 fluorescence spectrometer (Photon Technology International, Inc., Birmingham, NJ) fitted with a xenon lamp was used to measure the fluorescence emission spectra of surfaces. […] For fluorescence measurements, the slides were stored in a water-filled cuvette at a 60-degree angle from the cuvette’s base. […] In 10 mM PBS, pH 7.4, deoxygenated by purging with nitrogen gas, and maintained in this inert atmosphere during the electrochemical studies, square wave voltammograms (SUVs) were recorded. […]

In the case of TSFAEYWNLLSP [peptide derived from p53], the “signal response (poly-tyrosine square wave voltammogram)” value is reported as “almost totally compromised signal response”.
